{
  "sequences": {"note": "Protein sequences, listed by entry. Tags and fused reporters are not part of them.", "UniProt P23975, whole entry": "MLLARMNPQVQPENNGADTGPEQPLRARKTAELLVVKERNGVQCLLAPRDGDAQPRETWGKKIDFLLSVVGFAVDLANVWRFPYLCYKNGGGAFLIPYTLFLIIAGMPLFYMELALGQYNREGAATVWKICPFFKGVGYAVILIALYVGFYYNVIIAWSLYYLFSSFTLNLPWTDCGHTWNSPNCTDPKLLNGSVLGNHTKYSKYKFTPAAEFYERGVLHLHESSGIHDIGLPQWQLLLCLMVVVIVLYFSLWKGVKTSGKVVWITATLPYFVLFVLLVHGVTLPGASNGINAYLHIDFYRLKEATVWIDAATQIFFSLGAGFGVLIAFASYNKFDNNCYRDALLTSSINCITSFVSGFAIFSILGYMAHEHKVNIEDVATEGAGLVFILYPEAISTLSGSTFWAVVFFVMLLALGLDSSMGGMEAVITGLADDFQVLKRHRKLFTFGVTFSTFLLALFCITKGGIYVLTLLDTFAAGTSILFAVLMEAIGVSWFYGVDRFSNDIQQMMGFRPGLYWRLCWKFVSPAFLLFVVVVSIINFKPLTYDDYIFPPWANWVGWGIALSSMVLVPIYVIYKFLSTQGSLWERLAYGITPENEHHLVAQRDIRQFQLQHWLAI"},
  "source": "patent US7507717B2",
  "about": "(Xenome Ltd., priority 2002, dated 2009)",
  "data": [
    {"molecular_target": "T1, human noradrenaline transporter (hNET) (Homo sapiens, UniProt P23975)", "T1 construct": "expressed in transfected cells; host or cells: COS-7 cells (ATCC), transient transfection with metafectene", "test": "biochemical", "assay_type": "binding", "conditions": "Av IC50 Displacement of 3H-nisoxetine from hNET", "units": {"IC50": "µM"}, "values": [
      {"compound": "CCCC[C@H](NC(=O)CNC(=O)C[C@@H](N)CCCCN)C(=O)N[C@H]1CSSC[C@@H](C(N)=O)NC(=O)[C@@H]2C[C@@H](O)CN2C(=O)[C@H](Cc2c[nH]cn2)NC(=O)[C@@H]2CSSC[C@H](NC1=O)C(=O)NCC(=O)N[C@@H](Cc1ccc(O)cc1)C(=O)N[C@@H](CCCCN)C(=O)N[C@@H](CC(C)C)C(=O)N2", "note": "[compound 58]", "IC50": 0.174},
      {"compound": "COc1ccc(C[C@@H]2NC(=O)CNC(=O)[C@@H]3CSSC[C@H](NC(=O)[C@H](CC(C)C)NC(=O)[C@H](CCCCN)NC2=O)C(=O)N[C@@H](CCCNC(=N)N)C(=O)N[C@@H](C)C(=O)N[C@H](C(N)=O)CSSC[C@H](NC(=O)[C@@H](NC(=O)CNC(=O)[C@H](CC(N)=O)NC(=O)[C@@H](N)Cc2ccc(O)cc2)C(C)C)C(=O)N3)cc1", "note": "[compound 62]", "IC50": 0.182},
      {"compound": "COc1ccc(C[C@@H]2NC(=O)CNC(=O)[C@@H]3CSSC[C@H](NC(=O)[C@H](CC(C)C)NC(=O)[C@H](CCCCN)NC2=O)C(=O)N[C@@H](CCCNC(=N)N)C(=O)N2C[C@H](O)C[C@H]2C(=O)N[C@H](C(=O)N[C@@H](Cc2ccc(O)cc2)C(N)=O)CSSC[C@H](NC(=O)[C@H](CC(C)C)NC(=O)CNC(=O)[C@@H]2CCC(=O)N2)C(=O)N3)cc1", "note": "[compound 65]", "IC50": 0.195},
      {"compound": "CC(C)C[C@@H]1NC(=O)[C@H](CCCCN)NC(=O)[C@H](Cc2ccc(O)cc2)NC(=O)CNC(=O)[C@@H]2CSSC[C@H](NC1=O)C(=O)N[C@@H](CCCNC(=N)N)C(=O)N1C[C@H](O)C[C@H]1C(=O)N[C@H](C(N)=O)CSSC[C@H](NC(=O)[C@@H](NC(=O)CNC(=O)[C@H](CC(N)=O)NC(=O)[C@@H](N)Cc1ccc(O)cc1)C(C)C)C(=O)N2", "note": "[compound 68]", "IC50": 0.219},
      {"compound": "COc1ccc(C[C@@H]2NC(=O)CNC(=O)[C@@H]3CSSC[C@H](NC(=O)[C@H](CC(C)C)NC(=O)[C@H](CCCCN)NC2=O)C(=O)N[C@@H](CCCNC(=N)N)C(=O)N[C@@H](C)C(=O)N[C@H](C(N)=O)CSSC[C@H](NC(=O)[C@H](Cc2c[nH]c4ccccc24)NC(=O)[C@H](Cc2ccccc2)NC(=O)CNC(=O)CNC(=O)[C@@H](N)Cc2ccccc2)C(=O)N3)cc1", "note": "[compound 70]", "IC50": 0.224},
      {"compound": "CCCC[C@H](NC(=O)CNC(=O)C[C@@H](N)CCCCN)C(=O)N[C@H]1CSSC[C@@H](C(N)=O)NC(=O)[C@@H]2CCCN2C(=O)[C@H](Cc2c[nH]cn2)NC(=O)[C@@H]2CSSC[C@H](NC1=O)C(=O)NCC(=O)N[C@@H](Cc1ccc(O)cc1)C(=O)N[C@@H](CCCCN)C(=O)N[C@@H](CC(C)C)C(=O)N2", "note": "[compound 73]", "IC50": 0.251},
      {"compound": "COc1ccc(C[C@@H]2NC(=O)CNC(=O)[C@@H]3CSSC[C@H](NC(=O)[C@H](CC(C)C)NC(=O)[C@H](CCCCN)NC2=O)C(=O)N[C@@H](Cc2c[nH]cn2)C(=O)N2CCC[C@H]2C(=O)N[C@H](C(N)=O)CSSC[C@H](NC(=O)[C@@H](NC(=O)CNC(=O)C[C@@H](N)CCCCN)C(C)C)C(=O)N3)cc1", "note": "[compound 75]", "IC50": 0.251},
      {"compound": "CC(C)CC[C@@H]1NC(=O)[C@H](CCCCN)NC(=O)[C@H](Cc2ccc(O)cc2)NC(=O)CNC(=O)[C@@H]2CSSC[C@H](NC1=O)C(=O)N[C@@H](Cc1c[nH]cn1)C(=O)N1CCC[C@H]1C(=O)N[C@H](C(N)=O)CSSC[C@H](NC(=O)[C@@H](NC(=O)CNC(=O)C[C@@H](N)CCCCN)C(C)C)C(=O)N2", "note": "[compound 76]", "IC50": 0.263},
      {"compound": "COc1ccc(C[C@@H]2NC(=O)CNC(=O)[C@@H]3CSSC[C@H](NC(=O)[C@H](CC(C)C)NC(=O)[C@H](CCCCN)NC2=O)C(=O)N[C@@H](CCCNC(=N)N)C(=O)N[C@@H](C)C(=O)N[C@H](C(N)=O)CSSC[C@H](NC(=O)[C@H](Cc2ccccc2)NC(=O)CNC(=O)CNC(=O)[C@@H](N)Cc2ccccc2)C(=O)N3)cc1", "note": "[compound 83]", "IC50": 0.302},
      {"compound": "CC(C)C[C@@H]1NC(=O)[C@H](CCCCN)NC(=O)[C@H](Cc2ccc(O)cc2)NC(=O)CNC(=O)[C@@H]2CSSC[C@H](NC1=O)C(=O)N[C@@H](CCCNC(=N)N)C(=O)N1C[C@H](O)C[C@H]1C(=O)N[C@H](C(N)=O)CSSC[C@H](NC(=O)[C@@H](NC(=O)CNC(=O)C[C@@H](N)CCCCN)C(C)C)C(=O)N2", "note": "[compound 87]", "IC50": 0.331},
      {"compound": "CC(C)C[C@@H]1NC(=O)[C@H](CCCCN)NC(=O)[C@H](Cc2ccc(O)cc2)NC(=O)CNC(=O)[C@@H]2CSSC[C@H](NC1=O)C(=O)N[C@@H](Cc1c[nH]cn1)C(=O)N1CCC[C@H]1C(=O)N[C@H](C(N)=O)CSSC[C@H](NC(=O)[C@@H](NC(=O)CNC(=O)C[C@@H](N)CCCCN)C(C)C)C(=O)N2", "note": "[compound 93]", "IC50": 0.407},
      {"compound": "COc1ccc(C[C@@H]2NC(=O)CNC(=O)[C@@H]3CSSC[C@H](NC(=O)[C@H](CC(C)C)NC(=O)[C@H](CCCCN)NC2=O)C(=O)N2CCC[C@H]2C(=O)N[C@H](C(N)=O)CSSC[C@H](NC(=O)[C@@H](NC(=O)CNC(=O)[C@H](CC(N)=O)NC(=O)[C@@H](N)Cc2ccc(O)cc2)C(C)C)C(=O)N3)cc1", "note": "[compound 94]", "IC50": 0.427},
      {"compound": "CC(C)C[C@@H]1NC(=O)[C@H](CCCCN)NC(=O)[C@H](Cc2ccc(O)cc2)NC(=O)CNC(=O)[C@@H]2CSSC[C@H](NC1=O)C(=O)N[C@@H](Cc1c[nH]cn1)C(=O)N1C[C@H](O)C[C@H]1C(=O)N[C@H](C(N)=O)CSSC[C@H](NC(=O)[C@@H](NC(=O)CNC(=O)C[C@H](CCCCN)NC(=O)[C@@H](N)Cc1c[nH]c3ccccc13)C(C)C)C(=O)N2", "note": "[compound 95]", "IC50": 0.437},
      {"compound": "CC(C)C[C@@H]1NC(=O)[C@H](CCCCN)NC(=O)[C@H](Cc2ccc(O)cc2)NC(=O)CNC(=O)[C@@H]2CSSC[C@H](NC1=O)C(=O)N[C@@H](Cc1c[nH]cn1)C(=O)N1C[C@H](O)C[C@H]1C(=O)N[C@H](C(N)=O)CSSC[C@H](NC(=O)[C@@H](NC(=O)CNC(=O)[C@H](CC(N)=O)NC(=O)[C@H](C)NC(=O)[C@H](C)NC(=O)[C@@H](N)Cc1c[nH]c3ccccc13)C(C)C)C(=O)N2", "note": "[compound 100]", "IC50": 0.646},
      {"compound": "CC(C)C[C@@H]1NC(=O)[C@H](CCCCN)NC(=O)[C@H](Cc2ccc(O)cc2)NC(=O)CNC(=O)[C@@H]2CSSC[C@H](NC1=O)C(=O)N[C@@H](Cc1c[nH]cn1)C(=O)N1C[C@H](O)C[C@H]1C(=O)N[C@H](C(N)=O)CSSC[C@H](NC(=O)[C@@H](NC(=O)CNC(=O)C[C@@H](N)CCCCN)C(C)C)C(=O)N2", "note": "[compound 101]", "IC50": 0.692},
      {"compound": "CC(C)C[C@@H]1NC(=O)[C@H](CCCCN)NC(=O)[C@H](Cc2ccc(O)cc2)NC(=O)CNC(=O)[C@@H]2CSSC[C@H](NC1=O)C(=O)N[C@@H](Cc1c[nH]cn1)C(=O)N1Cc3ccccc3C[C@H]1C(=O)N[C@H](C(N)=O)CSSC[C@H](NC(=O)[C@@H](NC(=O)CNC(=O)[C@@H](N)CC(N)=O)C(C)C)C(=O)N2", "note": "[compound 102]", "IC50": 0.708},
      {"compound": "COc1ccc(C[C@H](N)C(=O)N[C@@H](CC(N)=O)C(=O)NCC(=O)N[C@H](C(=O)N[C@H]2CSSC[C@@H](C(N)=O)NC(=O)[C@@H]3CCCN3C(=O)[C@H](Cc3c[nH]cn3)NC(=O)[C@@H]3CSSC[C@H](NC2=O)C(=O)NCC(=O)N[C@@H](Cc2ccc(O)cc2)C(=O)N[C@@H](CCCCN)C(=O)N[C@@H](CC(C)C)C(=O)N3)C(C)C)cc1", "note": "[compound 104]", "IC50": 0.724},
      {"compound": "CC(C)C[C@@H]1NC(=O)[C@H](CCCCN)NC(=O)[C@H](Cc2ccc(O)cc2)NC(=O)CNC(=O)[C@@H]2CSSC[C@H](NC1=O)C(=O)N[C@@H](Cc1c[nH]cn1)C(=O)N1C[C@H](O)C[C@H]1C(=O)N[C@H](C(N)=O)CSSC[C@H](NC(=O)[C@@H](NC(=O)CNC(=O)[C@H](CC(N)=O)NC(=O)[C@H](C)NC(=O)[C@@H](N)Cc1c[nH]c3ccccc13)C(C)C)C(=O)N2", "note": "[compound 106]", "IC50": 0.813},
      {"compound": "CC(C)C[C@@H]1NC(=O)[C@H](CCCCN)NC(=O)[C@H](Cc2ccc(O)cc2)NC(=O)CNC(=O)[C@@H]2CSSC[C@H](NC1=O)C(=O)N[C@@H](Cc1c[nH]cn1)C(=O)N1CCC[C@H]1C(=O)N[C@H](C(N)=O)CSSC[C@H](NC(=O)[C@@H](NC(=O)CNC(=O)[C@@H](N)CCCN)C(C)C)C(=O)N2", "note": "[compound 108]", "IC50": 0.871},
      {"compound": "CC(=O)N[C@@H](Cc1c[nH]c2ccccc12)C(=O)N[C@@H](CCCCN)CC(=O)NCC(=O)N[C@H](C(=O)N[C@H]1CSSC[C@@H](C(N)=O)NC(=O)[C@@H]2C[C@@H](O)CN2C(=O)[C@H](Cc2c[nH]cn2)NC(=O)[C@@H]2CSSC[C@H](NC1=O)C(=O)NCC(=O)N[C@@H](Cc1ccc(O)cc1)C(=O)N[C@@H](CCCCN)C(=O)N[C@@H](CC(C)C)C(=O)N2)C(C)C", "note": "[compound 109]", "IC50": 0.933},
      {"compound": "CC(C)C[C@@H]1NC(=O)[C@H](CCCCN)NC(=O)[C@H](Cc2ccc(O)cc2)NC(=O)CNC(=O)[C@@H]2CSSC[C@H](NC1=O)C(=O)N[C@@H](Cc1c[nH]cn1)C(=O)N1Cc3ccccc3C[C@H]1C(=O)N[C@H](C(N)=O)CSSC[C@H](NC(=O)[C@@H](NC(=O)CNC(=O)C[C@@H](N)CCCCN)C(C)C)C(=O)N2", "note": "[compound 111]", "IC50": 0.977},
      {"compound": "CCCC[C@H](NC(=O)CNC(=O)[C@@H](N)CC(N)=O)C(=O)N[C@H]1CSSC[C@@H](C(N)=O)NC(=O)[C@@H]2C[C@@H](O)CN2C(=O)[C@H](Cc2c[nH]cn2)NC(=O)[C@@H]2CSSC[C@H](NC1=O)C(=O)NCC(=O)N[C@@H](Cc1ccc(O)cc1)C(=O)N[C@@H](CCCCN)C(=O)N[C@@H](CC(C)C)C(=O)N2", "note": "[compound 112]", "IC50": 1.02},
      {"compound": "COc1ccc(C[C@@H]2NC(=O)CNC(=O)[C@@H]3CSSC[C@H](NC(=O)[C@H](CC(C)C)NC(=O)[C@H](CCCCN)NC2=O)C(=O)N[C@@H](Cc2c[nH]cn2)C(=O)N2CCC[C@H]2C(=O)N[C@H](C(N)=O)CSSC[C@H](NC(=O)[C@@H](NC(=O)CNC(=O)[C@@H](N)CC(N)=O)C(C)C)C(=O)N3)cc1", "note": "[compound 113]", "IC50": 1.1},
      {"compound": "CC(=O)N[C@@H](CCCCN)CC(=O)NCC(=O)N[C@H](C(=O)N[C@H]1CSSC[C@@H](C(N)=O)NC(=O)[C@@H]2C[C@@H](O)CN2C(=O)[C@H](Cc2c[nH]cn2)NC(=O)[C@@H]2CSSC[C@H](NC1=O)C(=O)NCC(=O)N[C@@H](Cc1ccc(O)cc1)C(=O)N[C@@H](CCCCN)C(=O)N[C@@H](CC(C)C)C(=O)N2)C(C)C", "note": "[compound 114]", "IC50": 1.1},
      {"compound": "CC(C)C[C@@H]1NC(=O)[C@H](CCCCN)NC(=O)[C@H](Cc2ccc(O)cc2)NC(=O)CNC(=O)[C@@H]2CSSC[C@H](NC1=O)C(=O)N[C@@H](Cc1c[nH]cn1)C(=O)N1CCC[C@H]1C(=O)N[C@H](C(N)=O)CSSC[C@H](NC(=O)[C@@H](NC(=O)CNC(=O)[C@H](CC(N)=O)NC(=O)c1ccccc1)C(C)C)C(=O)N2", "note": "[compound 120]", "IC50": 1.23}
    ]}
  ]
}
